# Measurements: paper PMC3555856, “In vitro α-glucosidase inhibitory activity of phenolic constituents from aerial parts of Polygonum hyrcanicum” (DARU Journal of Pharmaceutical Sciences, 2012)
# By UniProt entry, the sequences of proteins in these tests, tags left out. Where a name states a change or a piece, a line headed by the entry shows the natural chain unless it says otherwise.
# UniProt P53341: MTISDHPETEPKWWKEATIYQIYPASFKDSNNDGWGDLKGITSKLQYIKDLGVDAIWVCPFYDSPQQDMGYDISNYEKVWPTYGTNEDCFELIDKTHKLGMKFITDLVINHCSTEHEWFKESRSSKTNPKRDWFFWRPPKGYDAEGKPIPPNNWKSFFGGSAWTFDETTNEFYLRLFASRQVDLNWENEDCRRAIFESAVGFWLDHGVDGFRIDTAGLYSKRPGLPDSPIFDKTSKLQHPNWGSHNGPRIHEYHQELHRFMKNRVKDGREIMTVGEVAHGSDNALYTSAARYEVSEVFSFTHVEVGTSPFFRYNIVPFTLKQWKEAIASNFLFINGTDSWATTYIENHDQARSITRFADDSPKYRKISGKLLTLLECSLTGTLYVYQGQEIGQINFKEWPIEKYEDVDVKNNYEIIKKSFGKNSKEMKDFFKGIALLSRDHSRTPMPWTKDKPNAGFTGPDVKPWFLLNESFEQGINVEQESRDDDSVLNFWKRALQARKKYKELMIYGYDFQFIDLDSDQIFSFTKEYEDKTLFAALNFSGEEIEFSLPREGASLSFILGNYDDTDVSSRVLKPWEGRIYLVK
# Target: T1, α-glucosidase (EC 3.2.1.20, from baker's yeast) (Saccharomyces cerevisiae, UniProt P53341)
# T1 construct: purchased Sigma-Aldrich Chemie (Germany)
# Format: biochemical
# Settings: read-out: α-Glucosidase inhibitory activity IC50; mean ± SD of three experiments; pH 6.9, 37°C
# Procedure: Column chromatography was carried out using silica gel (230–400 mesh) obtained from Merck (Germany), RP-18 (230–400 mesh) and Sephadex LH-20 procured from Fluka (Switzerland). Pre-coated silica gel 60 F254 plates and silica gel 60 RP-18 F254S plates (Merck, Germany) were used for TLC. Spots were observed under UV at 254 and 366 nm and spraying with anisaldehyde-H2SO4 reagent (Sigma-Aldrich Chemie, Germany) and heating at 120°C for 5 min. HPLC separations were performed on a Knauer Wellchrom system connected to a photodiode array detector (Smart line system, Germany). ^1H and ^13C NMR spectra were measured on a Bruker Avance DRX 500 spectrometer operating at 500 MHz for ^1H and 125 MHz for ^13C using a 5 mm PABBO probehead. α-glucosidase (EC 3.2.1.20, from baker’s yeast, 77 U/mg), p-nitrophenyl-α-d-glucopyranoside, vitamin E 97% and 2, 2-diphenyl-picrylhydrazyl (DPPH) were obtained from Sigma-Aldrich Chemie (Germany). […]
# α-Glucosidase inhibitory activities were evaluated according to the chromogenic method described by McCue et al. (2005), with some modifications. […] Absorbance of the wells was measured with a microplate reader at 405 nm, while the reaction system without plant extracts was used as control. […] The enzyme inhibitory rates of samples were calculated as follows: […]
# The IC50 values of samples were calculated and reported as the mean ± standard deviation (SD) of three experiments.
substance,measurement,value
myricetin 3-O-α-L-rhamnopyranoside [Compound 10],IC50,0.6 ± 0.2 µM
